Earlier results on one compound are cited in patent US20070099863A1, “Compounds for the treatment of demyelinating and autoimmune diseases” (priority 2003, published 2007).

A word on the IC50: it is the concentration that inhibits the measured activity by half.

Structures can show the parent of a compound that is named as a salt.

This data set addresses T1, P2X3 (Homo sapiens, UniProt P56373).
T1 sequence (P56373 1-397): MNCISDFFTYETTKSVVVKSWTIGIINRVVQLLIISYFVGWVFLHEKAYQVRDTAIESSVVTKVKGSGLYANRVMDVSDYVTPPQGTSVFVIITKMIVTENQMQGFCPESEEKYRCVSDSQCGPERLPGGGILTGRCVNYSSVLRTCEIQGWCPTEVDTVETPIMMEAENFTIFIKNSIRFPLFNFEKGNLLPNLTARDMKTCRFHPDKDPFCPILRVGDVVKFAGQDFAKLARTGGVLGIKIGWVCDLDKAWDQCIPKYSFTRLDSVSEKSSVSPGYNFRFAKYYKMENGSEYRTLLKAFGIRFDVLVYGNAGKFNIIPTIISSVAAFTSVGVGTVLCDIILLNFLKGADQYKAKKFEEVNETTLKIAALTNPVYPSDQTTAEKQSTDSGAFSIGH
To be noted: P2X3 subtype; read-out: IC50 in relation to P2X3; cited from earlier work.

Consider `Cc1nc(N=Nc2ccc(S(=O)(=O)O)cc2S(=O)(=O)O)c(COP(=O)(O)O)c(C=O)c1O` [PPADS, tetrasodium salt of pyridoxalphosphate-6-azophenyl-2′,4′-disulfonic acid], for which the IC50 was 1000 nM.
